{"source": "patent US7148204B2", "about": "“Antisense modulation of bcl-x expression” (Isis Pharmaceuticala, Inc., priority 1998, dated 2006)", "system": "Shionogi tumors", "conditions": "12.5 mg/kg i.p. once daily for 40 days from 1 day postcastration"}
{"substance": "5′-TCTCCCGGCATGTGCCAT-3′", "values": [{"measurement": "median time to recurrence of AI tumors postcastration", "result": 31, "unit": "days"}]}
